According to article PMC7614232 (Organic & biomolecular chemistry, 2022):

Experiments:
[1] = target: T1, AMAN-2 (Golgi α-mannosidase) (Caenorhabditis elegans, UniProt Q2PJ74); assay: α-mannosidase inhibition assay with pNP-Man, AMAN-2; format: biochemical
T1 sequence (Q2PJ74 27-1145): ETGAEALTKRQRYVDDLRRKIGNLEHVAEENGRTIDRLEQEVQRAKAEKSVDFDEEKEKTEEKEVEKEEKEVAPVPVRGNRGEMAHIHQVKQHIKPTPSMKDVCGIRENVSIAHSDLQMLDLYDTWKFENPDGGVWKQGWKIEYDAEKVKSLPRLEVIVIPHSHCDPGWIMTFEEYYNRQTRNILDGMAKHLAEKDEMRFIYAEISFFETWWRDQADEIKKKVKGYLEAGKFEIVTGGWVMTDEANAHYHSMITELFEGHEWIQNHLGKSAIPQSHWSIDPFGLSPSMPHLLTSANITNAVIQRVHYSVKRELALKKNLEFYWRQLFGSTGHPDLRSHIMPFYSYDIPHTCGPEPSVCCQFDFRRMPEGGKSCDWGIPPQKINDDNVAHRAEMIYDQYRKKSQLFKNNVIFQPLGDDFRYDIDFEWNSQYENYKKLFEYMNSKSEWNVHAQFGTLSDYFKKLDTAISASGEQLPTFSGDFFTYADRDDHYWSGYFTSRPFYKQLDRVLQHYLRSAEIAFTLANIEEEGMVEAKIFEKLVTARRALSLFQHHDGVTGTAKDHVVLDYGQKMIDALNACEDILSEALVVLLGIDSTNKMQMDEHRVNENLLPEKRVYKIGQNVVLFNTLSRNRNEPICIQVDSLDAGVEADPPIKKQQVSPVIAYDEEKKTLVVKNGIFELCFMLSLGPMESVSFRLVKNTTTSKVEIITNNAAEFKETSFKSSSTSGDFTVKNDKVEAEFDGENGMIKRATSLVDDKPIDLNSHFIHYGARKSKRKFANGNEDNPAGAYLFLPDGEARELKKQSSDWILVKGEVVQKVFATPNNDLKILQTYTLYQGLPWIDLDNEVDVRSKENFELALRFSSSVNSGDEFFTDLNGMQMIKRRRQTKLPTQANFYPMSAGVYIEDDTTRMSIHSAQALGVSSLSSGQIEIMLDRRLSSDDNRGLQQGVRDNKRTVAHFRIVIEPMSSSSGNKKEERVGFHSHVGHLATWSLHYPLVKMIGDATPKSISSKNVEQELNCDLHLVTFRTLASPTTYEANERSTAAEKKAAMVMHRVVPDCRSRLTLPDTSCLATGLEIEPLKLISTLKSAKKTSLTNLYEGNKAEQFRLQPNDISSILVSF

[2] = target: T2, GMIIb (Golgi α-mannosidase) (Drosophila melanogaster, UniProt Q9VF33); conditions: cited from earlier work
T2 sequence (Q9VF33 31-1249): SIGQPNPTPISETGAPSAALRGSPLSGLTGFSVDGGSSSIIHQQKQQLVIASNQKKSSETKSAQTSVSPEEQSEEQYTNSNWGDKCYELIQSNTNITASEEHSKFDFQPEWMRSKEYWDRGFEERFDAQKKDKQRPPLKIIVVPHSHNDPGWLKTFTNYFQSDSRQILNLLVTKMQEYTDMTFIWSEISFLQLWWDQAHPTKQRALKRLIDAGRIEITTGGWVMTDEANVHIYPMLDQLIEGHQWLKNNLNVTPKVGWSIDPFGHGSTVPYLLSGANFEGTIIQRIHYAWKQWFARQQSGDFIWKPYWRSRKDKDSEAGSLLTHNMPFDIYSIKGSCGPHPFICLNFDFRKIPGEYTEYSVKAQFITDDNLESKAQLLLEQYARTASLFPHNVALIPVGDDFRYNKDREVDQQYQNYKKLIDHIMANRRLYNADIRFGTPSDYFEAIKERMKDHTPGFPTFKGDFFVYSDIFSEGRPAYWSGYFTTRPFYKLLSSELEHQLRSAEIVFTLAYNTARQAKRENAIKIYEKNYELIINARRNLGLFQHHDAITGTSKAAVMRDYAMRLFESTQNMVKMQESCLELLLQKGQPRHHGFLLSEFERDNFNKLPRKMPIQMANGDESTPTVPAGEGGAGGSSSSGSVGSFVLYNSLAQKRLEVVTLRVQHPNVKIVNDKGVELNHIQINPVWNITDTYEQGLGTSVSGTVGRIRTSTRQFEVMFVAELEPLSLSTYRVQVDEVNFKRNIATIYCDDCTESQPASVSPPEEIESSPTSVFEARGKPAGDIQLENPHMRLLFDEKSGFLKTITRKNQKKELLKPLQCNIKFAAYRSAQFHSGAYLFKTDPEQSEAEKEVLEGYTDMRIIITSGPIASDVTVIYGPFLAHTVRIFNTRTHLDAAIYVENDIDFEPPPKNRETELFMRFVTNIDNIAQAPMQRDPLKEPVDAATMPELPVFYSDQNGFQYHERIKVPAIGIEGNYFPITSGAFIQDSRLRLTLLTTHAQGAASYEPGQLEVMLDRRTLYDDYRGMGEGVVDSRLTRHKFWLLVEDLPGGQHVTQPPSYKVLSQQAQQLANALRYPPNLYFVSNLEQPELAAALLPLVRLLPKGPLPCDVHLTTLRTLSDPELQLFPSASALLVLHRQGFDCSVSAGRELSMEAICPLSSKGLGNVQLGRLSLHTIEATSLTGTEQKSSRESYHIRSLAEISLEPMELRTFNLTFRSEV

[3] = target: T2, GMIIb (Golgi α-mannosidase); assay: α-mannosidase inhibition assay with pNP-Man, GMIIb; format: biochemical; conditions: selectivity index

For `O[C@H]1[C@H]2[C@H](O)CCCN2C[C@H]1O` [Swainsonine, (1S,2R,8R,8aR)-trihydroxy-indolizidine], the IC50 ([1]; read-out: IC50 AMAN-2, 2 mM pNP-Man, pH 6.0) is given as 4 nM, the “SI^b = IC50(JBMan)/IC50(AMAN-2)” value ([1]; selectivity index) is given as 20 and the IC50 ([2]; read-out: IC50 GMIIb, ref Nemčovičová et al. 20) is given as 4.5 nM. The Ki ([2]; read-out: Ki Golgi-type mannosidase (GMIIb)) was 3 nM and the “SI^a = IC50(LManII)/IC50(GMIIb)” value [3] was 3.
